This experiment is described as follows: viability loss in PTEN-deleted cells – cell-based, validation, diverse DP compound set (AID 999).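 Also: 100% = median luminescence of untreated cell control wells and 0% = no signal.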 To be noted: HCT116 PTEN-null viability, CellTiter-Glo, 60 h; at 10 µM; active compounds read low. A general note: In ATP-based viability assays light output follows the ATP content of the culture.

The list shows a part of the results, in another mix than the full data. Active and inactive are the calls of the source.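 The calls were made as follows: active = viability at or below 21.59%, 3 SD under the median of tested compounds; inactive = the rest.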

For orientation: viability means a read-out of living cells in per cent, often relative to untreated cells. As to `CN(C(=O)Cc1ccc(Cl)c(Cl)c1)[C@H]1CCCC[C@@H]1N1CCCC1`, the viability was inactive: 92.7%.

These data come from PubChem BioAssay AID999 (SRMLSC, 2007).
